Source: ChEMBL document CHEMBL4414606, “Bioactive Streptoglutarimides A-J from the Marine-Derived Streptomyces sp. ZZ741” (J Nat Prod, 2019)

Test system: Staphylococcus aureus
Assay: Antibacterial activity against methicillin resistant Staphylococcus aureus assessed as reduction in bacterial growth incubated for 12 hrs by microdilution method
Assay type: functional

## GENTAMICIN
  MIC: 0.5 µg/mL
